Antibody variant affinities, Ab-14 light chain, assay B

From the AlphaSeq antibody data of Li et al. 2023 (doi:10.1038/s41467-023-39022-2), copy in the FLAb collection.

All variants were tested on one target, the spike HR2 peptide PDVDLGDISGINAS (SARS-CoV-2).

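Phage display of a naive human antibody library on the peptide gave the parent. This is the validation round: designs drawn from the data on random variants, tested in the same kind of assay. Their group label is 14L_GP_Gen (GP: Gaussian process model; Gen: genetic algorithm; a sequence that several methods proposed may carry one label only). The scFvs were displayed on barcoded MATa yeast, the peptide on MATalpha yeast. Binding brings cells together so that they mate, and sequencing counts the barcode pairs among the diploids. The ratio of observed to expected reads was calibrated, replicate by replicate, on BCL2-family standards whose Kd was known from biolayer interferometry. Mating was done six times.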

Each scFv is VH, three GGGGS repeats, VL, as in the parent Ab-14, and differs from it in the CDRs of the light chain only.
VH: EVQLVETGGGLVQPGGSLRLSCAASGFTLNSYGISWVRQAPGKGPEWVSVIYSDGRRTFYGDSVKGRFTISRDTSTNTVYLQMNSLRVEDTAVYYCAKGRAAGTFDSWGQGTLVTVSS
VL: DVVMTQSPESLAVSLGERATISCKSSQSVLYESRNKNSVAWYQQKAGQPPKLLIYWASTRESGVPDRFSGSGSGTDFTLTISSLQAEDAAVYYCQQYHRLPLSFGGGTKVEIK

Positions count from residue 1 of the parent VL; S25L puts L in place of S. Numbers give log10(Kd / nM), so 0 is 1 nM and 3 is 1 µM. Smaller is tighter. A mean of the replicates is given; it leaves out those without a signal. A sequence measured in both rounds can read differently, since the two assays cover different ranges.

changes	replicates, log10 nM	mean, log10 nM	signal with controls
S25L N35V W56N E61M	0.27 0.33 0.45 0.40 0.13 0.42	0.33	2/18 (3.29)
S25L S26Q V29D W56H	0.15 -0.10 0.00 -0.13 -0.31 -0.01	-0.07	0/18
S25L S26P N35V W56N	-0.15 -0.23 -0.31 -0.44 -0.29 -0.19	-0.27	1/18 (1.83)
S25L S26Q V29E W56N T59L	-0.13 -0.01 -0.21 -0.18 -0.05 -0.06	-0.11	1/18 (3.01)
S25L K36F W56E	0.11 -0.39 -0.31 -0.37 -0.45 -0.52	-0.32	0/18
S25L V29E N35V W56N T59Q	0.76 0.52 0.54 0.36 0.37 0.88	0.57	2/18 (3.86)
S25L W56E S58Q	-0.27 -0.31 -0.48 -0.59 -0.46 -0.32	-0.41	0/18
S25L S26Q L30E W56E	1.74 4.00 0.96 1.36 1.07 1.69	1.80	0/18
S25I W56N E61M	0.39 0.24 0.34 0.21 0.55 0.72	0.41	1/18 (3.79)
S25L V29E S33D W56N T59Q E61M	-0.12 -0.20 -0.50 -0.53 -0.29 -0.24	-0.31	1/18 (2.46)
S25L L30E W56E T59Q	0.56 0.18 0.20 0.09 0.11 0.59	0.29	0/18
S25L S26Y V29D W56N T59Y	0.25 0.00 0.14 -0.06 0.03 0.27	0.10	1/18 (3.59)
S25L S26P V29D W56N E61M	-0.17 -0.41 -0.31 -0.39 -0.47 -0.19	-0.32	0/18
K24H S25L L30E W56N	0.42 0.32 0.44 0.20 0.47 0.36	0.37	2/18 (2.45)
S25L N35W W56N T59Q	0.68 0.41 1.34 1.07 2.11 1.10	1.12	0/18
S25L S33D W56N E61C	0.04 -0.21 -0.13 -0.21 -0.27 0.09	-0.12	2/18 (2.71)
S25L Q27F V29Y W56N	-0.17 -0.27 -0.21 -0.40 -0.18 -0.19	-0.24	0/18
S25Y S38N W56D	-0.26 -0.27 -0.46 -0.53 -0.57 -0.46	-0.43	0/18
S25V V29P W56D	-0.39 -0.45 -0.51 -0.59 -0.31 -0.45	-0.45	1/18 (2.26)
S25L S33M W56N E61M	0.23 0.25 0.11 0.26 0.39 1.01	0.37	0/18
K24H S25V W56N	0.96 0.65 0.69 1.12 0.62 0.79	0.81	0/18
S25L S26Q W56E T59Q	-0.30 -0.22 -0.24 -0.48 -0.48 -0.40	-0.35	0/18
S25L S26E S28Q V29W W56N	-0.15 0.00 -0.45 -0.54 -0.39 -0.13	-0.28	1/18 (3.97)
S25V V29Q S38A W56E	-0.18 -0.31 -0.19 -0.44 -0.47 -0.34	-0.32	1/18 (1.76)
S25V S33W W56E	-0.34 -0.14 -0.18 -0.31 -0.27 0.03	-0.20	0/18
S25V V29E W56Q	-0.21 -0.18 -0.03 -0.42 -0.10 0.10	-0.14	0/18
S25M V29N W56N T59Q	0.09 -0.21 -0.16 -0.05 -0.33 -0.19	-0.14	0/18
S25V N37F W56N	-0.23 -0.45 -0.37 -0.44 -0.41 -0.31	-0.37	1/18 (3.55)
S25L Q27A V29E W56E	-0.19 -0.24 -0.31 -0.10 -0.17 0.00	-0.17	0/18
S25L S26Q V29Q W56N T59Q E61L	0.23 0.15 -0.09 -0.08 0.09 0.21	0.09	1/18 (3.16)
S25L S26Q W56N E61M	0.03 -0.15 -0.38 0.00 0.13 0.40	0.01	0/18
S25F V29E W56N T59Q S62E	-0.22 -0.17 -0.27 -0.30 -0.42 -0.24	-0.27	1/18 (2.76)
S25L V29W K36P W56N	0.43 0.49 0.15 0.25 0.22 0.36	0.32	2/18 (2.80)
S25L Y31M W56E	-0.02 -0.27 -0.29 -0.53 -0.36 -0.22	-0.28	1/18 (2.83)
K24A S25L W56N	-0.34 -0.43 -0.40 -0.67 -0.59 -0.40	-0.47	1/18 (3.03)
S25L V29N L30D W56N	-0.01 -0.11 -0.15 -0.31 -0.24 -0.12	-0.15	0/18
S25L S38Q W56G	-0.02 -0.24 -0.29 -0.41 -0.42 -0.10	-0.25	1/18 (2.91)
S25L S26Q V29E W56N E61L	-0.02 -0.02 -0.17 -0.22 -0.18 0.05	-0.09	1/18 (2.00)

Background: pairings of all light chain designs with three empty control strains gave a value in 4% of cases (median 2.64, 5th percentile 1.59). Values in that range, when seen in few replicates, are hard to tell from nonspecific mating. The control count says in how many pairings with the empty strains this scFv gave a signal, with their mean in brackets. In the paper, a design with two or fewer of six values counts as a poor binder.